Source: article PMC3105092 (PLoS ONE, 2011)

Assays:
[1] = target: T1, AgCPR (Anopheles gambiae NADPH-cytochrome P450 oxidoreductase) (Anopheles gambiae, UniProt Q86QH5); test: Isothermal titration calorimetry of nucleotide ligands with AgCPR; type: binding; conditions: ITC
T1 sequence (Q86QH5 64-679): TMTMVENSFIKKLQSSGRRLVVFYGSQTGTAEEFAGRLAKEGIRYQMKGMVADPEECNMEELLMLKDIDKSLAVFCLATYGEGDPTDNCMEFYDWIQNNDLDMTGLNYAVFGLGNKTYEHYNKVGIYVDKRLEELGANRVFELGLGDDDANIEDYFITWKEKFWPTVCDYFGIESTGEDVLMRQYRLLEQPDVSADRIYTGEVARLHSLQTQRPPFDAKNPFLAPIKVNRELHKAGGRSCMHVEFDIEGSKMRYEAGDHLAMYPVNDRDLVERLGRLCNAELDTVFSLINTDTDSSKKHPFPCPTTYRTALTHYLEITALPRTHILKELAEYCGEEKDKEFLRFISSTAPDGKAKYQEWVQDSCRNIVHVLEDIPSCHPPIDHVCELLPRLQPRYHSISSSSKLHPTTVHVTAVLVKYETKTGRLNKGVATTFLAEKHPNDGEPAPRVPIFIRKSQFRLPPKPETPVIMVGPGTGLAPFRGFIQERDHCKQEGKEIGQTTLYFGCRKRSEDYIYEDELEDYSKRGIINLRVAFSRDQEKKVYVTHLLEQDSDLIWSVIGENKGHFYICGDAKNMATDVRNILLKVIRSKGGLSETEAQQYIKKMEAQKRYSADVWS
Experimental: ITC experiments were performed using a ITC200 microcalorimeter (Microcal Inc/GE Healthcare). Protein samples were dialysed into 100 mM BES; pH 7.0 from 50% glycerol stocks stored at −20°C. The concentrations of all the proteins were determined by using Bradford assay. Samples were centrifuged at 13,000×g for 10 min and degassed at 23°C (2°C below the temperature at which the experiments were performed). All experiments were performed at 25°C. Typically, the protein concentration in the cell was 10–20 µM whilst ligand concentrations were in the range of 100–1000 µM. The data analysed using Origin 7.0 (Microcal) after subtracting the heats of dilution obtained from parallel experiments performed by injecting the nucleotide into the buffer. Thermodynamic parameters n (stoichiometry), K d (1/K a, the association constant), and Δ°H (enthalpy change) were obtained by nonlinear least-squares fitting of experimental data using the single-site binding model. The free energy of binding (ΔG°) and entropy change (ΔS°) were obtained using eqs 1 and 2.

hCPR [2] = target: T2, hCPR (Homo sapiens, UniProt P16435); test: Inhibition of cytochrome c reduction by hCPR; type: biochemical; conditions: read-out: IC50 (±S.E.), inhibition of cytochrome c reduction; Human CPR, Phosphate Buffer (0.3 M potassium phosphate pH 7.7), 15 µM NADPH, 50 µM cytochrome c, 25°C
T2 sequence (P16435 43-677 limits assumed): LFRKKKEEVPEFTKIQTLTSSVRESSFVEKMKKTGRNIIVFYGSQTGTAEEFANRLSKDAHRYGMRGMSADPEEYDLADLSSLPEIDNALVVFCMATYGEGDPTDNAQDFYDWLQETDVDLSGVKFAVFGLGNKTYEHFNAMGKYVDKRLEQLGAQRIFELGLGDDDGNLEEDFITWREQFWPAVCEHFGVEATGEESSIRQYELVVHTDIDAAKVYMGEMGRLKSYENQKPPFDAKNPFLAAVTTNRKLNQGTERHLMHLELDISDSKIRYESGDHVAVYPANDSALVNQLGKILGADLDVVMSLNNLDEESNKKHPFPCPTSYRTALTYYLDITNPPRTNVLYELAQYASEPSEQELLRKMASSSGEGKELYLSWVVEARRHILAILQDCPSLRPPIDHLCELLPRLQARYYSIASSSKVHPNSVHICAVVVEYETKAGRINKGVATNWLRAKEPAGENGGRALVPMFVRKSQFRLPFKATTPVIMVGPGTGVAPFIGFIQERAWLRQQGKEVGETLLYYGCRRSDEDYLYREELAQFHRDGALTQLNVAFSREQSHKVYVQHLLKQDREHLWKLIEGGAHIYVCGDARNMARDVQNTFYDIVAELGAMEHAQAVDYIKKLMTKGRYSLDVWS

hCPR [3] = target: T3, hCPR (Homo sapiens, UniProt P16435); test: Isothermal titration calorimetry of oxidised CPR with nucleotides in phosphate-free 100 mM BES, pH 7.0, 25 °C, single-site model; Kd = 1/Kobs.; type: binding
T3 construct: gene POR
T3 sequence (P16435 64-677): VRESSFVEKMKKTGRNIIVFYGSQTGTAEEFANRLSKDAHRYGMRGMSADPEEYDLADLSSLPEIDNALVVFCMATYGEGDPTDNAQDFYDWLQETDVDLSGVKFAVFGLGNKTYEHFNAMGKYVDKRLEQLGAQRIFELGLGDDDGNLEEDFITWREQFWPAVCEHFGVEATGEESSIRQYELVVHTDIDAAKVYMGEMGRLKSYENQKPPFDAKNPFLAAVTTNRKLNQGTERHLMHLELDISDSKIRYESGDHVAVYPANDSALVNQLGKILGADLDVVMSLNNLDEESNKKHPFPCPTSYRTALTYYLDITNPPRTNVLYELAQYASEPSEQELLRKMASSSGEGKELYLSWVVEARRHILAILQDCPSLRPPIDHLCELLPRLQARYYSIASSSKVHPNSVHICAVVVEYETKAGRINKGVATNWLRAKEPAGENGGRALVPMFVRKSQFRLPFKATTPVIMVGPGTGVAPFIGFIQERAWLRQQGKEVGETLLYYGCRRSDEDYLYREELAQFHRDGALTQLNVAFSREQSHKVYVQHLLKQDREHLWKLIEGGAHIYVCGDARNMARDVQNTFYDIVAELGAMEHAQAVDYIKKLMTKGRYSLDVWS

AgCPR [4] = target: T4, AgCPR (Anopheles gambiae, UniProt Q86QH5); test: Inhibition of cytochrome c (50 µM) reduction in phosphate-free 0.1 M Tris-HCl pH 7.7/0.1 M KCl, 25 °C, started with 12 µM (AgCPR) or 5 µM (hCPR) NADPH.; type: biochemical; design: Δ63AgCPR: soluble, membrane anchor (amino acids 2-63) deleted; His-tag removed by thrombin; expressed in E. coli; conditions: read-out: IC50 µM (±S.E.), Tris Buffer; SEM
AgCPR [5] = target: T4, AgCPR; test: Inhibition of cytochrome c (50 µM) reduction in 0.3 M potassium phosphate pH 7.7, 25 °C, started with 30 µM NADPH (AgCPR).; type: biochemical; design: Δ63AgCPR: soluble, membrane anchor (amino acids 2-63) deleted; His-tag removed by thrombin; expressed in E. coli; conditions: read-out: IC50 µM (±S.E.), Phosphate Buffer; SEM
hCPR [6] = target: T3, hCPR; test: Inhibition of cytochrome c (50 µM) reduction in phosphate-free 0.1 M Tris-HCl pH 7.7/0.1 M KCl, 25 °C, started with 12 µM (AgCPR) or 5 µM (hCPR) NADPH.; type: biochemical; conditions: read-out: IC50 µM (±S.E.), Tris Buffer; SEM

| Substance | binding (Kd) to AgCPR weaker than hCPR (fold) [1] | Kobs ([1]; 25°C, 100 mM BES pH 7.0) | TΔS ([1]; 25°C, 100 mM BES pH 7.0) | n (binding stoichiometry) ([1]; 25°C, 100 mM BES pH 7.0) | ΔG ([1]; 25°C, 100 mM BES pH 7.0) | ΔH ([1]; 25°C, 100 mM BES pH 7.0) | Kd ([1]; 25°C, 100 mM BES pH 7.0, Kd = 1/Kobs) | IC50 (hCPR [2]) | Kd (hCPR [3]) | IC50 (AgCPR [4]) | IC50 (AgCPR [5]) | IC50 (hCPR [6]) |
| --- | --- | --- | --- | --- | --- | --- | --- | --- | --- | --- | --- | --- |
| NADP^+ | ~5 fold | 27.5±1.29 ×10^5 M^−1 | -3.24 kcal/mol | 1.00±0.04 | -8.73 kcal/mol | -11.97 kcal/mol and -11.97 ± 0.64 kcal/mol | 0.363 ± 0.017 µM | 105 ± 18 µM |  |  |  |  |
| nicotinamide adenine dinucleotide phosphate, oxidised form [NADP+] |  |  |  |  |  |  |  |  | 0.069 ± 0.012 µM | 29 ± 3 µM | 129 ± 35 µM | 29 ± 3 µM |

Several values for one entry are separate records, joined by “and”; a condition that tells them apart may be missing. Identical values can stand only once.
